Measured values published in US20250382287A1, “PHARMACEUTICALLY ACCEPTABLE SALT AND CRYSTAL FORM OF NITROGEN-CONTAINING BRIDGE HETEROCYCLIC DERIVATIVE, AND METHOD FOR PREPARING SAME” (JIANGSU HENGRUI PHARMACEUTICALS CO., LTD., priority 2022, published 2025).

Protein sequences, listed by entry. Tags and fused reporters are not part of them. Residues count along the entry.
UniProt P00751, 260-764 limits assumed: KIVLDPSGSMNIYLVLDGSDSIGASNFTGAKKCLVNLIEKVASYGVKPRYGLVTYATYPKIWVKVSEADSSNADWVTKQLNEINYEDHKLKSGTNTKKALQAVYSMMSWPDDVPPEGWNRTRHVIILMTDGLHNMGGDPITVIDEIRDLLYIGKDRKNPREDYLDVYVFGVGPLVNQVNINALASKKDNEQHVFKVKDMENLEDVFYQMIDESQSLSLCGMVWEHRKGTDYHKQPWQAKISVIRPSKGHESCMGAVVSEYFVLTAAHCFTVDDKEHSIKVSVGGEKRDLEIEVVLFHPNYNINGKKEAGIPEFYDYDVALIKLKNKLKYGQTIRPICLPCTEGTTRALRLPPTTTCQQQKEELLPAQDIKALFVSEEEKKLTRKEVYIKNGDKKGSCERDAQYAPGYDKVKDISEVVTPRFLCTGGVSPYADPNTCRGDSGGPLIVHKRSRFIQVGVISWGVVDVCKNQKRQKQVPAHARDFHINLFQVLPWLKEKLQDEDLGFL

Target: Factor B enzyme (recombinant human complement factor B protein, as CVF:Bb complex) (Homo sapiens, UniProt P00751)
Assay: biochemical

CCO[C@H]1C[C@H]2CC[C@@](c3ccc(C(=O)O)cc3)(C1)N2Cc1c(OC)cc(C)c2[nH]ccc12 [compound I, 4-((1S,3S,5R)-3-ethoxy-8-((5-methoxy-7-methyl-1H-indol-4-yl)methyl)-8-azabicyclo[3.2.1]octan-1-yl)benzoic acid]
IC50: 1.3 nM
